Where “and” joins values, the source holds several entries; their conditions need not be identical. Equal values may be shown once.
Experiments:
hypoxic rat [1] = experiment: α-MpT-induced hypokinesia in hypoxic rat, Experiment 1A; details: for Locomotor activity after α-MpT treatment, recorded as total movements / Locomotor activity after αMpT treatment, recorded as big movements: hypoxic rats, 0.5 mg/kg/day by gavage 70-80 days; for Locomotor activity after αMpT treatment, recorded as big movements: Mean ± SEM
rats = details: administered over a prolonged period
hypoxic rat [2] = experiment: α-MpT-induced hypokinesia in hypoxic rat, Experiment 1B; details: hypoxic rats, 0.3 mg/Kg daily i.p. 21 days; for Locomotor activity after α-MpT treatment, recorded as big movements: Mean ± SEM

`N[C@@H]1CCc2ccccc21` [R-AI, (R)-1-aminoindan] was tested, and the “Locomotor activity after α-MpT treatment, recorded as total movements” value (“Locomotor activity … as total movements” for short) (hypoxic rat [1]; hour 1 after α-MpT) was 67 ± 8%, the “Locomotor activity after αMpT treatment, recorded as big movements” value (“Locomotor activity after αMpT treatment” for short) (hypoxic rat [1]; hour 1 after α-MpT) was 109 ± 27% and the “Locomotor activity … as total movements” value (hypoxic rat [1]; hour 2 after α-MpT) was 79 ± 12%. The “Locomotor activity after αMpT treatment” value (hypoxic rat [1]; hour 2 after α-MpT) was 125 ± 29%, the “Locomotor activity … as total movements” value (hypoxic rat [1]; hour 3 after α-MpT) was 198 ± 60% and the “Locomotor activity after αMpT treatment” value (hypoxic rat [1]; hour 3 after α-MpT) was 151 ± 36%. For the same compound, the “Locomotor activity … as total movements” value (hypoxic rat [1]; hour 4 after α-MpT) was 196 ± 17%, the “Locomotor activity after αMpT treatment” value (hypoxic rat [1]; hour 4 after α-MpT) was 165 ± 40% and the “Locomotor activity … as total movements” value (hypoxic rat [1]; hour 5 after α-MpT) was 138 ± 19%. For the same compound, the “Locomotor activity after αMpT treatment” value (hypoxic rat [1]; hour 5 after α-MpT) was 254 ± 55%, the “Locomotor activity … as total movements” value (hypoxic rat [1]; hour 6 after α-MpT) was 77 ± 17% and the “Locomotor activity after αMpT treatment” value (hypoxic rat [1]; hour 6 after α-MpT) was 201 ± 50%. For the same compound, the “Locomotor activity … as total movements” value (hypoxic rat [1]; hour 7 after α-MpT) was 173 ± 30%, the “Locomotor activity after αMpT treatment” value (hypoxic rat [1]; hour 7 after α-MpT) was 201 ± 50% and the “Locomotor activity … as total movements” value (hypoxic rat [1]; hour 8 after α-MpT) was 104 ± 18%. The “Locomotor activity after αMpT treatment” value (hypoxic rat [1]; hour 8 after α-MpT) was 89 ± 23%, the “Locomotor activity … as total movements” value (hypoxic rat [1]; hour 9 after α-MpT) was 95 ± 16% and the “Locomotor activity … as total movements” value (hypoxic rat [1]; hour 10 after α-MpT) was 114 ± 41%. For the same compound, the “Locomotor activity after αMpT treatment” value (hypoxic rat [1]; hour 10 after α-MpT) was 190 ± 34%, the “level of activity (total movements) versus corresponding control group, in words” value (hypoxic rat [1]; hypoxic rats pretreated) was “much higher” and the “post trauma motor function, in words” value (rats) was “can restore almost complete motor function”. For the same compound, the “Locomotor activity … as total movements” value (hypoxic rat [2]; hour 1 after α-MpT 70 mg/Kg) was 80% and 80 ± 15%, the “Locomotor activity after α-MpT treatment, recorded as big movements” value (hypoxic rat [2]; hour 1 after α-MpT 70 mg/Kg) was 96 ± 18% and the “Locomotor activity … as total movements” value (hypoxic rat [2]; hour 2 after α-MpT 70 mg/Kg) was 87 ± 13%. The “Locomotor activity after α-MpT treatment, recorded as big movements” value (hypoxic rat [2]; hour 2 after α-MpT 70 mg/Kg) was 97 ± 16%, the “Locomotor activity … as total movements” value (hypoxic rat [2]; hour 3 after α-MpT 70 mg/Kg) was 132 ± 25% and the “Locomotor activity after α-MpT treatment, recorded as big movements” value (hypoxic rat [2]; hour 3 after α-MpT 70 mg/Kg) was 117 ± 45%. For the same compound, the “Locomotor activity … as total movements” value (hypoxic rat [2]; hour 4 after α-MpT 70 mg/Kg) was 115 ± 24%, the “Locomotor activity after α-MpT treatment, recorded as big movements” value (hypoxic rat [2]; hour 4 after α-MpT 70 mg/Kg) was 91 ± 11% and the “Locomotor activity … as total movements” value (hypoxic rat [2]; hour 5 after α-MpT 70 mg/Kg) was 65 ± 28%. For the same compound, the “Locomotor activity after α-MpT treatment, recorded as big movements” value (hypoxic rat [2]; hour 5 after α-MpT 70 mg/Kg) was 67 ± 11%, the “Locomotor activity … as total movements” value (hypoxic rat [2]; hour 6 after α-MpT 70 mg/Kg) was 76 ± 11% and the “Locomotor activity after α-MpT treatment, recorded as big movements” value (hypoxic rat [2]; hour 6 after α-MpT 70 mg/Kg) was 58 ± 14%. For the same compound, the “Locomotor activity … as total movements” value (hypoxic rat [2]; hour 7 after α-MpT 70 mg/Kg) was 65 ± 7%, the “Locomotor activity after α-MpT treatment, recorded as big movements” value (hypoxic rat [2]; hour 7 after α-MpT 70 mg/Kg) was 68 ± 15% and the “Locomotor activity … as total movements” value (hypoxic rat [2]; hour 8 after α-MpT 70 mg/Kg) was 40 ± 6%. For the same compound, the “Locomotor activity after α-MpT treatment, recorded as big movements” value (hypoxic rat [2]; hour 8 after α-MpT 70 mg/Kg) was 34 ± 6%, the “Locomotor activity … as total movements” value (hypoxic rat [2]; hour 9 after α-MpT 70 mg/Kg) was 72 ± 12% and the “Locomotor activity after α-MpT treatment, recorded as big movements” value (hypoxic rat [2]; hour 9 after α-MpT 70 mg/Kg) was 84 ± 19%. For the same compound, the “Locomotor activity … as total movements” value (hypoxic rat [2]; hour 10 after α-MpT 70 mg/Kg) was 69 ± 18% and the “Locomotor activity after α-MpT treatment, recorded as big movements” value (hypoxic rat [2]; hour 10 after α-MpT 70 mg/Kg) was 44 ± 6%.
